Assays:
[1] = tested on: site of thrombus formation (mesenteric vessel injury); assay: Real-time intraoperative NIR fluorescence thrombus detection after mesenteric vessel injury; type: in vivo, CD-1 mice; conditions: mice; i.v. 30 minutes after mesenteric vessel injury; N=4
Procedure: (§1) Anesthesia was induced with an intraperitoneal injection of pentobarbital (40 mg/kg) to mice and an intramuscular injection of ketamine (35 mg/kg) and xylazine (5 mg/kg) to rabbits. Pig anesthesia was induced with 4.4 mg/kg intramuscular Telazol (Fort Dodge Labs, Fort Dodge, Iowa), and anesthesia was maintained through a 7-mm endotracheal tube with 1.5% isoflurane/98.5% O2 at 5 L/min. After anesthesia, a laparotomy was made in the midline; the stomach and a loop of small intestine were externalized. A mesenteric vessel of the mice and pigs was lacerated and then permitted to clot, resulting in intramesenteric thrombus formation. […]
(§2) The intraoperative NIR fluorescence imaging system optimized for animal surgery has been described previously in detail.^12 Briefly, it is composed of 2 wavelength-isolated excitation sources, one generating 0.5 mW/cm^2 of 400- to 700-nm “white” light and the other generating 5 mW/cm^2 of 725- to 775-nm light over a 15-cm diameter field of view. Simultaneous photon collection of color video and NIR fluorescence images is achieved with custom-designed optics that maintains separation of the white light and NIR fluorescence (>795 nm) channels. […]
(§3) After injection of FBG800, signal to background ratio (SBR) was measured by using as background the signal from an identically sized and shaped region of interest over adjacent mesenteric vessels or GI mucosa. […]

[2] = tested on: sites of clot formation (mesenteric vessel injury, mucosal resection of the stomach); assay: Real-time intraoperative NIR fluorescence thrombus detection after mesenteric vessel injury and mucosal resection of the stomach; type: in vivo, Yorkshire pigs; conditions: 30-kg pigs; i.v. 30 minutes after injuries, no active bleeding
Procedure: as §1, §2, §3

[3] = tested on: sites of injury (gastrotomy, mucosal injury of the stomach); assay: Intraoperative thrombus detection with ^125I-FBG, counts at injured vs uninjured stomach tissue; type: in vivo, New Zealand White rabbits; conditions: 15 μCi/kg, N=3
Procedure: Anesthesia was induced with an intraperitoneal injection of pentobarbital (40 mg/kg) to mice and an intramuscular injection of ketamine (35 mg/kg) and xylazine (5 mg/kg) to rabbits. Pig anesthesia was induced with 4.4 mg/kg intramuscular Telazol (Fort Dodge Labs, Fort Dodge, Iowa), and anesthesia was maintained through a 7-mm endotracheal tube with 1.5% isoflurane/98.5% O2 at 5 L/min. After anesthesia, a laparotomy was made in the midline; the stomach and a loop of small intestine were externalized. A mesenteric vessel of the mice and pigs was lacerated and then permitted to clot, resulting in intramesenteric thrombus formation. For rabbits and pigs, a gastrotomy was made, and the posterior wall mucosa was pulled through. A 5-mm mucosectomy was performed with a scalpel. The injured area was allowed to clot and marked with a 4-0 silk suture for identification.
1.7 mg/kg FBG800 protein (10 nmol/kg of fluorophore) was injected intravenously in mice (N=4) and pigs (N=3). 15 μCi/kg was injected intravenously in rabbits (N=3). This dose is approximately 100 ng and is much less than the total fibrinogen in the rabbit. Injections occurred 30 minutes before or 30 minutes after injury as described below. For controls, the same dose of CW800-labeled human serum albumin (HSA800, N=3)^16 or radiolabeled albumin (^125I-HSA, N=3) was used.
After injection of FBG800, signal to background ratio (SBR) was measured by using as background the signal from an identically sized and shaped region of interest over adjacent mesenteric vessels or GI mucosa. After injection of ^125I-FBG, a standard Geiger counter was swept over the areas of injury to determine whether the site of injury could be recognized simply on the basis of meter readings. The entire stomach was then removed and opened. A portion of stomach away from both the gastrotomy site and the site area of mucosal injury was resected and used for background measurements. Next, the gastrotomy site was resected. Finally, the area of mucosal injury was recognized and resected. All tissues were weighed, placed in scintillation vials, and counted in a standard scintillation counter. Statistical comparisons were made with a Student t test.

[4] = rabbits injected i.v. 30 minutes after gastrotomy
[5] = rabbits injected i.v. 30 minutes before gastrotomy, counted 3 hours after the injury

HSA800: CW800-labeled human serum albumin, control protein
Accumulation at the site of thrombus formation [1]: no accumulation
Accumulation at the sites of clot formation / injury [2]: no accumulation

^125I-HSA: ^125I-radiolabeled human serum albumin, control, purchased from Amersham Biosciences
Ratio of the counts at the site of (mucosal) injury as compared to background, uninjured mucosa [3, 4]: 1.2±0.1
Ratio of the counts at the site of the gastrotomy as compared to the uninjured mucosa [3, 4]: 1.0±0.4
Ratio of the counts at the site of (mucosal) injury as compared to background, uninjured mucosa [3, 5]: 1.7±1.0
Ratio of the counts at the site of the gastrotomy as compared to the uninjured mucosa [3, 5]: 1.0±0.7
